In patent US20240239772A1, “PROTEASE INHIBITORS AND METHODS OF USE” (The Cleveland Clinic Foundation, priority 2021, published 2024):

System: SARS-CoV-2
Assay type: cell-based
Conditions: SARS-CoV-2, Vero E6 ACE2 cells

## O=C(Cn1nnc2ccccc21)N(Cc1cccc(Cl)c1)c1ccc(-c2c[nH]cn2)cc1 [Compound 41, N-(4-(1H-Imidazol-4-yl)phenyl)-2-(1H-benzo[d][1,2,3]triazol-1-yl)-N-(3-chlorobenzyl)acetamide]
  antiviral efficacy compared with remdesivir: comparable to that of the polymerase inhibitor, remdesivir
